Data: PubChem BioAssay AID1745857 (National Center for Advancing Translational Sciences (NCATS), 2022)
In all, about 120,000 compounds went through this assay and about 370 (0.31%) were called active. These results got no clear call from the source, so the numbers are uncertain. The call rests on the fitted dose curve.

Assay: Primary qHTS Assay for Foot and Mouth Disease Virus Antivirals against NCGC Sytravon and CBC Compound Libraries: Renilla Luciferase Signal; further: nearly all actives have a fitted effect of over 55% in size
Conditions: FMDV replicon cells
Potency means the concentration at half of the fitted maximal effect.

**Q.** For `Cc1cc([N+](=O)[O-])cc([N+](=O)[O-])c1O`, which Potency is on record?
**A.** inconclusive: 39.8 µM
